Measurements: US20120009152A1, “NITRIC OXIDE DONORS FOR TREATMENT OF DISEASE AND INJURY” (priority 2002, published 2012)

Tested on: cGMP
Assay: cGMP measurement in brain tissue
Type: in vivo, rat
Conditions: nonischemic rats; sildenafil 2 or 5 mg/kg for 7 days; vs control group
Method: Ischemic rats (n=9) were treated with the same volume of tap water as a control group. Functional tests were performed and body weight was measured before ischemia and at 4, 7, 14, 21, and 28 days after onset of MCA occlusion. All rats were killed 28 days after MCA occlusion. […] These rats were killed 1 hour after the last treatment for measurements of brain levels of cGMP. […] Reverse transcription (RT)-polymerase chain reaction (PCR) was performed to detect PDE5 in brain tissue. Levels of cGMP were measured with the use of a commercially available low-pH immunoassay kit (R&D Systems Inc). The sensitivity of the assay was approximately 0.6 pmol/mL for the nonacetylated procedure. The brain was rapidly removed, and the cortex and the cerebellum were separated.

SMILES: CCCc1nn(C)c2c(=O)[nH]c(-c3cc(S(=O)(=O)N4CCN(C)CC4)ccc3OCC)nc12 [Sildenafil]
- cortical levels of cGMP: significantly (P=0.05) increased the cortical levels of cGMP
